The values below come from ChEMBL document CHEMBL4680200.

Chains of the proteins cited; added tags and fusions are not shown.
UniProt P33535, whole entry: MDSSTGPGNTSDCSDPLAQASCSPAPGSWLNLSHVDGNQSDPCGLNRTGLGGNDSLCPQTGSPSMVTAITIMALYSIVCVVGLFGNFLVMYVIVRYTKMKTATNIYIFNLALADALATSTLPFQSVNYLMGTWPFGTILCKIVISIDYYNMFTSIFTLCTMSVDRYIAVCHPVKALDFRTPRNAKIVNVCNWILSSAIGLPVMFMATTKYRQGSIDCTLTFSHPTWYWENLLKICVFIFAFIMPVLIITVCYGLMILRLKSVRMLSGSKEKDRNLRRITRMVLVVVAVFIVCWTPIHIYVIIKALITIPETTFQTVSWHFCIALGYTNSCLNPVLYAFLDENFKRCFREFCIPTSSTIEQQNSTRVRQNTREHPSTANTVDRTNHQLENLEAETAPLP
UniProt P33533, whole entry: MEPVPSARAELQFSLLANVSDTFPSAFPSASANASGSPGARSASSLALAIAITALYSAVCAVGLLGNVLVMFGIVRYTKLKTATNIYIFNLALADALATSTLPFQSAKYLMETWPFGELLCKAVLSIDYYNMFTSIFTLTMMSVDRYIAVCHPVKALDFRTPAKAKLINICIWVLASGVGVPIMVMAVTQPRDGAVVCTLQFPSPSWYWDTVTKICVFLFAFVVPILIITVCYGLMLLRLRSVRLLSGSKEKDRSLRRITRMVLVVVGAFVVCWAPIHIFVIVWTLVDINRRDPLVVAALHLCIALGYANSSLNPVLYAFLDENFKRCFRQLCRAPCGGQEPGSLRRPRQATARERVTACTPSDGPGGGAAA
UniProt P41144, whole entry: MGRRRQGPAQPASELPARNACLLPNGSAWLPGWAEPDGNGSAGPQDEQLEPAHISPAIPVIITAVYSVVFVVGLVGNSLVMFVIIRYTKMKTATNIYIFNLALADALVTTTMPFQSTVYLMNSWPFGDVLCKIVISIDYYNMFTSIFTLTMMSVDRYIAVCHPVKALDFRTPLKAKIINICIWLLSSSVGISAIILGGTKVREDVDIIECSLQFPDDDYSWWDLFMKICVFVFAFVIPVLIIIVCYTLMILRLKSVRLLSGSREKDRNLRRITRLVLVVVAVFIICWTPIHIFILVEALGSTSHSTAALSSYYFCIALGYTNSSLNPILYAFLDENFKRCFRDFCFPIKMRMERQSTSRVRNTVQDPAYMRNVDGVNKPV

The structures appear in SMILES notation.

The target in test [1] is Mu-type opioid receptor (Rattus norvegicus, UniProt P33535). The test is described as follows: Displacement of [3H]DAMGO from MOR in Wistar rat brain membranes measured after 45 mins by scintillation counting method. The settings on record: strain Wistar.
For test [2], the target named is Delta-type opioid receptor (Rattus norvegicus, UniProt P33533). Description: Displacement of [3H]Ile5'6-deltorphin II from DOR in Wistar rat brain membranes measured after 45 mins by scintillation counting method. The following applies: strain Wistar.
Test [3] has as its target Kappa-type opioid receptor (Cavia porcellus, UniProt P41144). The test is described as follows: Displacement of [3H]HS665 from KOR in guinea pig brain membranes measured after 45 mins by scintillation counting method.

`CC(C)(O)[C@H]1CC23CC[C@]1(O)[C@H]1Oc4c(O)ccc5c4[C@]12CCN(CC1CC1)[C@@H]3C5`: the Ki in test [1] turned out to be 33.3 pM; in test [2] it was 1490 pM; in test [3], 24 pM.
The corresponding values for `CC(C)(C)[C@](C)(O)[C@H]1CC23CC[C@]1(O)[C@H]1Oc4c(O)ccc5c4[C@]12CCN(CC1CC1)[C@@H]3C5` are 218 pM, 15700 pM and 257 pM.
